From patent publication US20230219906A1, “MACROCYCLIC-2-AMINO-3-FLUORO-BUT-3-ENAMIDES AS INHIBITORS OF MCL-1” (Janssen Pharmaceutica NV, priority 2020, published 2023)

Chains of the proteins cited; added tags and fusions are not shown.
UniProt Q07820, whole entry: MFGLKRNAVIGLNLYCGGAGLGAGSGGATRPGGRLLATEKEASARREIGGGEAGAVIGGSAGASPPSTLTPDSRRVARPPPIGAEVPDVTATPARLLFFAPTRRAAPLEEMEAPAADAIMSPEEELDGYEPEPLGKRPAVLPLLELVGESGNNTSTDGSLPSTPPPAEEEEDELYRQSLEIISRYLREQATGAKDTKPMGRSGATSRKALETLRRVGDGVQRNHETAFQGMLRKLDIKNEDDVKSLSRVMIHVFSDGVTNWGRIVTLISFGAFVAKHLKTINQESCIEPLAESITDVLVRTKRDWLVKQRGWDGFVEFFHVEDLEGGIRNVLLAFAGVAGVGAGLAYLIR

Experiments:
[1] = tested on: MOLP-8 human multiple myeloma cell line; test: Caspase-Glo 3/7 apoptosis induction assay in MOLP-8 cells; settings: read-out: MOLP8 AC50; caspase-3/7 activity, 2 hours at 37° C.; averaged over all runs on all batches
Description: MCL-1 is a regulator of apoptosis and is highly over-expressed in tumor cells that escape cell death. The assay evaluates the cellular potency of small-molecule compounds targeting regulators of the apoptosis pathway, primarily MCL-1, Bfl-1, Bcl-2, and other proteins of the Bcl-2 family. Protein-protein inhibitors disrupting the interaction of anti-apoptotic regulators with BH3-domain proteins initiate apoptosis.
The Caspase-Glo® 3/7 Assay is a luminescent assay that measures caspase-3 and −7 activities in purified enzyme preparations or cultures of adherent or suspension cells. The assay provides a proluminescent caspase-3/7 substrate, which contains the tetrapeptide sequence DEVD. This substrate is cleaved to release aminoluciferin, a substrate of luciferase used in the production of light. Addition of the single Caspase-Glo® 3/7 Reagent in an “add-mix-measure” format results in cell lysis, followed by caspase cleavage of the substrate and generation of a “glow-type” luminescent signal. […]
Cell cultures were maintained between 0.2 and 2.0×10^6 cells/mL. […] The cells were counted and diluted as needed. […]
Compounds were delivered in assay-ready plates (Proxiplate) and stored at −20° C. […] The plates were then sealed and measured after 30 minutes.
The activity of a test compound was calculated as percent change in apoptosis induction as follows: […]

[2] = molecular target: Myeloid Cell Leukemia 1(Mcl-1) (Homo sapiens, UniProt Q07820); test: Terbium labeled Mcl-1 HTRF binding assay with Cy5-labeled BIM BH3 peptide; settings: read-out: Tb-MCL1 Ki; displacement of Cy5 Bim BH3 peptide; Ki=IC50/(1+[L]/Kd), [L]=8 nM, Kd=10 nM; 60 minutes at room temperature
Method: Terbium labeled Myeloid Cell Leukemia 1(Mcl-1) homogeneous time-resolved fluorescence (HTRF) binding assay utilizing the BIM BH3 peptide (H2N—(C/Cy5Mal) WIAQELRRIGDEFN-OH) as the binding partner for Mcl-1.
This assay evaluated inhibition of the BH3 domain: Mcl-1 interaction by measuring the displacement of Cy5-labeled BIM BH3 peptide (H2N—(C/Cy5Mal) WIAQELRRIGDEFN-OH) in the HTRF assay format.
The following assay and stock buffers were prepared for use in the assay: (a) Stock buffer: 10 mM Tris-HCl, pH=7.5+150 mM NaCl, filtered, sterilized, and stored at 4° C.; and (b) 1X assay buffer, where the following ingredients were added fresh to stock buffer: 2 mM dithiothreitol (DTT), 0.0025% Tween-20, 0.1 mg/mL bovine serum albumin (BSA). […]
The TR-FRET signal was read on an BMG PHERAStar FSX MicroPlate Reader at room temperature using the HTRF optic module (HTRF: excitation: 337 nm, light source: laser, emission A: 665 nm, emission B: 620 nm, integration start: 60 μs, integration time: […]).
The BMG PHERAStar FSX MicroPlate Reader was used to measure fluorescence intensity at two emission wavelengths—665 nm and 620 nm—and report relative fluorescence units (RFU) for both emissions, as well as a ratio of the emissions (665 nm/620 nm)*10,000. […]

Row | Compound | AC50 [1] [nM] | Ki [2] [nM]
1 | COCCN(CCOC)C(=O)[C@H]1/C(F)=C/C[C@H](C)CS(=O)(NC(=O)c2cn(C)nc2OC)=NC(=O)c2ccc3c(c2)N(C[C@@H]2CCCN21)C[C@@]1(CCCc2cc(Cl)ccc21)CO3 (single isomer, unassigned) [Compound 89] | 214 | 0.036
2 | COCCN(CCOC)C(=O)[C@H]1/C(F)=C/C[C@H](C)CS(=O)(NC(=O)c2cn(C)nc2OC)=NC(=O)c2ccc3c(c2)N(C[C@@H]2CCCN21)C[C@@]1(CCCc2cc(Cl)ccc21)CO3 (single isomer, unassigned) [Compound 90] | 25.8 | 0.026
